Several values for one entry are separate records, joined by “and”; a condition that tells them apart may be missing. Identical values can stand only once. Like-named read-outs stand apart in the source and are kept apart here.
Assays:
[1] = tested on: Fg.Ste2; assay type: cell-based, Fusarium graminearum; details: Fg.Ste2 biosensor CPK366; 10 μM synthetic alpha pheromone; normalized to yEGFP background (receptor without pheromone); four biological replicates; Fig. 1E
[2] = tested on: Fo.Ste2; assay type: cell-based, Fusarium oxysporum
[3] = tested on: Bb.Ste2; assay type: cell-based, Beauveria bassiana
[4] = tested on: Bc.Ste2; assay type: cell-based, Botrytis cinerea
[5] = target: T1, Sc Ste2 (Saccharomyces cerevisiae, UniProt D6VTK4); assay type: cell-based
T1 construct: The native Sc system and an empty construct were added as positive and negative controls; endogenous in cells; host or cells: Saccharomyces cerevisiae wild-type control strains GEN18 (MATa) and GEN27 (MATα)
T1 sequence (D6VTK4 1-431): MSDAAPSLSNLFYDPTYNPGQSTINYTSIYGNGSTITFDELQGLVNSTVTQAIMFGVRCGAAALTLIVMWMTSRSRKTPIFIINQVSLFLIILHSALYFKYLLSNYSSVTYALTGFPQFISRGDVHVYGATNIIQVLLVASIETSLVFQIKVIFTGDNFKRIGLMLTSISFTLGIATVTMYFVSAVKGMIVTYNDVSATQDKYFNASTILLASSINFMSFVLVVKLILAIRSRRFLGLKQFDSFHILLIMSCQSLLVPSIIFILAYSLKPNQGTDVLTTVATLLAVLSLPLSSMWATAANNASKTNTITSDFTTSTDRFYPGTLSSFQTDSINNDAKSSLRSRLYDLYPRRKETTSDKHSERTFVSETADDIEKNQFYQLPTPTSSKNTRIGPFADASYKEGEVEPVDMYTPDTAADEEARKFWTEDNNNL

[6] = tested on: Ca.Ste2; assay type: cell-based, Candida albicans
[7] = tested on: Fg.Ste2; assay type: cell-based, Fusarium graminearum; details: for Diploid frequency (%): 20 h coculture; for diploid frequency (%) / average (diploid colonies): GPCR strain GEN37 HIS; for average (diploid colonies): dilution 500, mean of Rep1-3
[8] = tested on: Fo.Ste2; assay type: cell-based, Fusarium oxysporum; remark: listed apart in the source
[9] = tested on: Bb.Ste2; assay type: cell-based, Beauveria bassiana; details: for Diploid frequency (%): 20 h coculture; for diploid frequency (%) / average (diploid colonies): GPCR strain GEN47 HIS; for average (diploid colonies): dilution 500, mean of Rep1-3
[10] = tested on: Hj Ste2 GPCR (Hj.Hpr2); assay type: cell-based, Hypocrea jecorina
[11] = tested on: Bc.Ste2; assay type: cell-based, Botrytis cinerea; remark: listed apart in the source
[12] = tested on: Mo Ste2 GPCR; assay type: cell-based, Magnaporthe oryzae; details: Fig. 1D mating matrix; pheromone secreted by MATa strain, GPCR in MATα strain; deep well plate, 20 h coculture; three technical plating replicates
[13] = tested on: Nc Ste2 GPCR; assay type: cell-based, Neurospora crassa
[14] = tested on: empty (strain lacking a GPCR); assay type: cell-based, Saccharomyces cerevisiae; details: Fig. 1D mating matrix; pheromone secreted by MATa strain, MATα strain lacking a GPCR (empty); deep well plate, 20 h coculture
[15] = Fig. 1D mating matrix, pheromone secreted by MATa strain, GPCR in MATα strain, deep well plate, three technical plating replicates
[16] = Fig. 1F validation in culture tubes, secreted pheromone, three biological and three technical replicates

SMILES: N=C(N)NCCC[C@H](NC(=O)CNC(=O)[C@H](CS)NC(=O)[C@@H](N)Cc1c[nH]c2ccccc12)C(=O)N1CCC[C@H]1C(=O)NCC(=O)N[C@@H](CCC(N)=O)C(=O)N1CCC[C@H]1C(=O)N[C@@H](CS)C(=O)O [Bc]
- Fold change yEGFP [1]: 1
- Fold change yEGFP [2]: 1
- Fold change yEGFP [3]: 1
- Bc.Ste2 + pheromones, biosensor response, group mean [4]: 134.8
- Fold change yEGFP [4]: 154
- Normalized over control [4]: 115.60 and 115.12 and 113.51 and 110.13
- logEC50 [4]: -9.689
- Sup.Fig.3B Bc.Ste2 biosensor response, group mean ([4]; 0.0005 μM): 897250
- Diploid frequency (%) [5]: 0.0%
- Diploid frequency (%) [6]: 0.0%
- Diploid frequency (%) [7, 15]: 0.0%
- Diploid frequency (%) [7, 16]: 0.0%
- diploid frequency (%) ([7]; co-culture replicate 1): 0%
- average (diploid colonies) ([7]; co-culture replicate 1): 0
- diploid frequency (%) ([7]; co-culture replicate 2): 0%
- average (diploid colonies) ([7]; co-culture replicate 2): 0
- diploid frequency (%) ([7]; co-culture replicate 3): 0%
- average (diploid colonies) ([7]; co-culture replicate 3): 0
- Diploid frequency (%) [8]: 0.0%
- average (diploid colonies) [8]: 0
- diploid frequency (%) [8]: 0%
- Diploid frequency (%) [9, 15]: 0.0%
- Diploid frequency (%) [9, 16]: 0.1%
- diploid frequency (%) ([9]; co-culture replicate 1): 0.2%
- average (diploid colonies) ([9]; co-culture replicate 1): 1
- diploid frequency (%) ([9]; co-culture replicate 2): 0.07%
- average (diploid colonies) ([9]; co-culture replicate 2): 0.33
- diploid frequency (%) ([9]; co-culture replicate 3): 0.07%
- average (diploid colonies) ([9]; co-culture replicate 3): 0.33
- Diploid frequency (%) [10]: 0.0%
- Diploid frequency (%) [11]: 9.0% and 1.9%
- diploid frequency (%) [11]: 11.02% and 5.15% and 10.94%
- Diploid frequency (%) [12]: 0.2%
- Diploid frequency (%) [13]: 0.0%
- Diploid frequency (%) [14]: 0.1%
